Test [1] has as its system inhibin. As to the kind of experiment: r-hCG in primary breast cancer: immunostaining for inhibin. It counts as in vivo, human. Particulars: 2-week r-hCG treatment. An excerpt: Hormonal Treatment: Dose and Schedule. The patients selected for this study received intramuscularly (IM) 10,000 units of the experimental drug, recombinant human chorionic gonadotropin on days 1, 3, 5, 7, 9, 11 and 13. The lyophilysate was reconstituted with normal physological saline immediately before injection in the gluteus. The controls were blinded and received IM injections of placebo. At each injection the patients were seen and informed about there concurrent medication and possible side effects. Treatment was double blind with 20 active sets and 5 controls. No dose modification was allowed. […] The efficacy of treatment was assessed by evaluating in the residual tumor resected by lumpectomy or mastectomy at the end of the two-week r-hCG treatment the same parameters evaluated in the initial core needle biopsies.
Surrogate Marker Analysis. The effects of r-hCG on the breast tumors was evaluated by using immunocytochemistry, performed in both core biopsies of the tumor and in residual tumor present in lumpectomy or mastectomy specimens. The following surrogate markers were evaluated using immunocytochemistry: Rate of cell proliferation, percentage of cells positive for estrogen (ER) and progesterone receptors (PgR) and immunoreactivity for inhibin. […] The study of lymph nodes of the same patients from which the primary tumors were studies was also analyzed by the same techniques. […]

Test [2] deals with neoplastic KS cells. The settings on record: cited from earlier work.
For test [3], the system named is DMBA-induced rat mammary carcinomas. Kind of test: Effect on early tumor development after DMBA (Regimens 4-6). The settings on record: 100 IU/day ip 40 days starting 21 days after DMBA, Regimens 5, 6. It counts as in vivo. Here is the method: Evaluation of the therapeutic efficiency of r-hCG on mammary cancer. The tumoristatic and tumoricidal efficacy of r-hCG and u-hCG on early and advanced mammary cancer was tested in intact virgin rats that had received a single dose of DMBA when they were 45 days old (FIG. 4, Regimens 4–9). The effect on early tumor development was tested under Regimens 4, 5, and 6. It was evaluated by initiating r-hCG treatment 20 days after DMBA administration, when early lesions, such as intraductal proliferations (IDPs) and carcinomas in situ (CIS) are already present, but there are no palpable tumors as yet. The effect on advanced tumor development was evaluated by starting the hormonal treatment 60 days after DMBA administration, or when palpable tumors had reached at least 1 cm in maximal diameter (Regimens 7, 8, and 9). In both groups the hormone was administered for 40 days and final tumorigenic response was evaluated 20 weeks post-DMBA administration. The effect of the hormonal treatment on the rate of tumor growth, with special emphasis on tumor regression, absence of skin ulceration, and final tumor size and necrosis were evaluated at the time of assessment of the final tumorigenic response.
For Regimens 4–9, 300 animals were inoculated with a single ig dose of 8 mg DMBA/100 g bw when they were 45 days old. Tumorigenic response was evaluated by palpation of the right and left mammary cervical, thoracic, abdominal and inguinal areas and from ventral to dorsolateral extensions of the glands. All tumors were sequentially numbered in the order they had appeared, their location was recorded, and the rate of tumor growth was determined by measurement of tumor size with a Vernier caliper. All changes in the health status of the animals, rapid tumor growth or skin ulceration were recorded. Those animals in which the tumors were excessively large or became ulcerated were euthanized, irrespectively of the stage of the hormonal treatment, in compliance with IACUC regulations. Those animals that were euthanized before initiation or before the completion of the hormonal treatments were deleted from the statistical analysis of the final tumorigenic response.
Regimens 4–6 were designed for testing the effect of the hormonal treatments on early tumor development. Twenty one days after DMBA administration those animals allocated to Regimen 4 started receiving a daily ip injection of 0.5 ml placebo for 40 days. Under Regimens 5 and 6 the same number of animals received for 40 days 100 IU/day of r-hCG or u-hCG, respectively. All the animals were palpated biweekly for detection of tumor development and determination of tumor growth rate. Final tumorigenic response was evaluated 20 weeks after administration of DMBA.
Evaluation of Final Tumorigenic Response. […] The tumors were rapidly dissected, measured in three dimensions, and serially sliced. Adjacent slices were:
The following criteria were utilized for evaluating the final tumorigenic response:
1. Rate of tumor growth, based on sequential measurement of the two largest diameters of tumors in live animals utilizing a Vernier Caliper and expressing the results in mm.
2. Final tumor size, based on measurement of the length, width and height of dissected tumors with a Vernier Caliper. Results were expressed in mm. A progressively smaller tumor size in successive measurements was indicative of tumor regression. Palpable tumors that had disappeared at the time of dissection were considered to be 100% regressed. The mammary tissue in which the tumor had been originally identified was fixed in 10% NBF for histopathological analysis.
5. Statistical Analysis. The significance of the differences in tumorigenic response among the groups was determined by Chi Square analysis and Student's T test.

Where “and” joins values, the source holds several entries; their conditions need not be identical. Equal values may be shown once.

With “r-hCG: recombinant human chorionic gonadotropin, glycoprotein hormone composed of two non-covalently linked (α and β) subunits”, in test [1], the “patients with significant increase in inhibin immunoreactivity in neoplastic cells” value is on record as “nine out of the eighteen” and the “primary breast lesions with overexpressed local production of inhibin” value is recorded as 50%. Moreover, the “effect in the in vivo animal model or in vitro assay on KS cells” value in test [2] is recorded as “Neither purified urinary nor purified recombinant hCG, subunits or fractions of hCG had any effect”. For the same substance, the “No. An. With Tumors” value in test [3] (20 weeks post-DMBA) is 38/49 and 38. For the same substance, in test [3], the “No. Tumors/Animal” value is given as 2.2, the “Percentage (animals with tumors)” value was 77.5 and the “Total No. Tumors” value amounted to 111.

Values taken from patent publication US7183251B1, “hCG therapy for the treatment of breast cancer” (Fox Chase Cancer Center, priority 1998, dated 2007).
